Yeast mating assay B: variants of the scFv Ab-14

The measurements come from Li et al. 2023 (doi:10.1038/s41467-023-39022-2) through the FLAb antibody collection.

Target: peptide PDVDLGDISGINAS, taken from heptad repeat 2 (HR2) of SARS-CoV-2 spike.

The variants keep the heavy chain, the linker and the frameworks of Ab-14 (scFv order VH, a 15-residue (Gly4Ser)3 linker, VL).
VH: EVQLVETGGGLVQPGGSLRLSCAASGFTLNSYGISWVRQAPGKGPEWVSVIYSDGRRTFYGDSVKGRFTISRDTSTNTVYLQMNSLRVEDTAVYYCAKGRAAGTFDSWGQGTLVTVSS
VL: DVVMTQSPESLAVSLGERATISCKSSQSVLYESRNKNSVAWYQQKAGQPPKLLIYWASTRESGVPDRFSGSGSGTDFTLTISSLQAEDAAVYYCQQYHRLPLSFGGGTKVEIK

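Phage display of a naive human antibody library on the peptide gave the parent. This is the validation round: designs drawn from the data on random variants, tested in the same kind of assay. Group labels follow the data file (Ctrl: baseline library sampled from a position-specific scoring matrix, with some repeated check sequences; En: ensemble of fine-tuned language models; GP: Gaussian process model; HC: hill climbing; Gen: genetic algorithm; Gibbs: Gibbs sampling; a sequence that several methods proposed may carry one label only). In AlphaSeq, yeast of one mating type display the scFv and yeast of the other type display the target. After mating in shaken culture at 30 °C for 16 h, diploids were selected and their barcode pairs sequenced. Each replicate has its own calibration line, from reference interactions of the BCL2 family. Mating was done six times.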

Each variant is given by its three light chain CDRs, as the data file delimits them; those of the parent are KSSQSVLYESRNKNSVA, WASTRES, QQYHRLPLS. Variants here have more than six changes. Values are apparent Kd, the geometric mean of the replicates that gave a signal; lower means stronger binding. The range of this assay differs from that of the first round, and the authors advise against merging the two.

- HLADTVMQGSYYRNSVA | QESTRAD | QQYHHLPLS [En_HC]: 2.3 nM (6 of 6 replicates; controls 1 of 18)
- HLGLATMLEETVRNSVA | NNSTRES | QQYDRLPLS [En_Gen]: 81 nM (5 of 6 replicates; controls 0 of 18)
- KSSESWLYDSRNANSVA | QASTRES | QQYHYLFIS [Ctrl]: 2.7 nM (6 of 6 replicates; controls 0 of 18)
- MLSEVLHMLGAKKNSIA | DLVLRAN | QQYHRLPLA [En_Gen]: 3.8 nM (2 of 6 replicates; controls 0 of 18)
- TISQSFHMENQFKNSVA | QASTRES | QCYDRLPLS [En_HC]: 300 nM (2 of 6 replicates; controls 1 of 18)
- TISMVMNHMTREKNNVA | NMDMREQ | QQYDRLPLS [En_Gen]: 1.9 nM (6 of 6 replicates; controls 0 of 18)
- KITATMRFEQKASNNIA | EVTNRSK | QQYYRLPLS [En_Gen]: 9.8 nM (6 of 6 replicates; controls 2 of 18)
- NLSDGDMYHNATRSAVA | NTTMRDF | QQYNRLPLD [En_Gibbs]: 12 nM (6 of 6 replicates; controls 1 of 18)
- KLDQSVGYESRNKNNVA | EGSQRES | QQYHRLPLS [GP_Gibbs]: 180 pM (6 of 6 replicates; controls 0 of 18)
- KLFDELSSEQVNARNVA | DALATHE | QQYVMLPLS [En_Gibbs]: 3.5 nM (6 of 6 replicates; controls 0 of 18)
- KLSMMVDYMQATHSSVA | QTSTREE | QQYHRLPLS [En_HC]: 3.1 nM (6 of 6 replicates; controls 0 of 18)
- QLQLQPQTGLNAQHSIA | DVSEKDM | QQYARLPLH [En_Gibbs]: 3.2 nM (6 of 6 replicates; controls 0 of 18)
- KLSKVTGHMSMAKNNVA | EMVTREK | QQYNRLPLS [En_Gen]: 19 nM (6 of 6 replicates; controls 1 of 18)
- KLSMITNHMQQSKNNVA | EMVTREN | QQYNRLPLS [En_Gen]: 4.6 nM (6 of 6 replicates; controls 0 of 18)
- KVDQDDLYENRNKNSVA | QGSTRES | QQYHRLPLS [GP_Gibbs]: 300 pM (6 of 6 replicates; controls 0 of 18)
- KLVGVDDNDRNPSHNIA | DVSMLDN | QQYHRLPLD [En_Gibbs]: 6.3 nM (6 of 6 replicates; controls 0 of 18)
- TISQSTLMTGLNRNSVA | QAEERLE | QQYHRLPLS [En_HC]: 2.7 nM (6 of 6 replicates; controls 1 of 18)
- KLSISGLHETIDKKSIA | ERSTREN | QQYHRLPLS [En_HC]: 2.8 nM (6 of 6 replicates; controls 1 of 18)
- KLSQSVCYGDRMKNSVA | NASTREQ | QQYHRLPLS [GP_Gibbs]: 4.4 nM (6 of 6 replicates; controls 0 of 18)
- KLSMTSGMEHVNRNSVA | ELVTRMS | QQYNRLPLS [En_Gen]: 3.0 nM (6 of 6 replicates; controls 0 of 18)
- KLSSSIRGESRNKNSVA | QAQTRES | QQYHRLPLS [Ctrl]: 2.6 nM (6 of 6 replicates; controls 1 of 18)
- KLMQMPEYESRNANSVA | NASTREE | QQYHRLPLS [GP_Gibbs]: 810 pM (6 of 6 replicates; controls 2 of 18)
- KVYQSHLYESRNDNNVA | NASYRES | QQYHRLPLS [GP_Gibbs]: 1.0 nM (6 of 6 replicates; controls 0 of 18)
- NLSWKTIGFENEWMAVA | NTSERNA | QQYARLPLS [En_Gibbs]: 8.0 nM (6 of 6 replicates; controls 1 of 18)
- ILSQMMLVAGNKHSSVA | QANNRED | QQYHRLPLS [En_HC]: 33 nM (6 of 6 replicates; controls 0 of 18)
- KIYQLGKGSQKINNNIA | QTDIREL | QSYNRLPLS [En_Gibbs]: 2.3 nM (6 of 6 replicates; controls 1 of 18)
- HMSALTLMGSRNRNSVA | QMTTREN | QQYDRLPLI [En_Gen]: 7.5 nM (6 of 6 replicates; controls 0 of 18)
- MIAESVGYQSRNKNSVA | DNSTREH | QCYDRLPLS [En_HC]: 320 nM (6 of 6 replicates; controls 1 of 18)
- ALSESMDMTSRNVNSVA | DLTTRGN | QQYHRLPLS [En_HC]: 2.2 nM (6 of 6 replicates; controls 1 of 18)
- NITGMVNGKGTTTKNIA | EAEFRAG | QQYSRLPLS [En_Gibbs]: 2.6 nM (6 of 6 replicates; controls 0 of 18)
- HLHTIMYTENIGENSIA | DANLHVD | QQYFRLPIS [En_Gibbs]: 11 nM (6 of 6 replicates; controls 1 of 18)
- TMPQVWMYESKNKNNVA | EQSTRED | QQYFRLPLS [En_HC]: 320 pM (6 of 6 replicates; controls 0 of 18)
- KVSDSSAFLSRNRNSVA | DNSTRGS | QQYHRLPLS [En_HC]: 6.0 nM (6 of 6 replicates; controls 1 of 18)
- TLTQSVGMESHQKNSVA | DLSTRGS | QQYHRLPLS [En_HC]: 2.0 nM (6 of 6 replicates; controls 3 of 18)
- KISQMVNFESTHINAVA | QMSTREE | QQYFRLPLS [En_HC]: 3.7 nM (6 of 6 replicates; controls 3 of 18)
- QLGATFDMTSKNKNSVA | EQSTREN | QQYHRLPLS [En_HC]: 1.1 nM (6 of 6 replicates; controls 1 of 18)
- DVHALMNHSEDLMQNIA | GESCRDA | QQYERLPLS [En_Gibbs]: 8.1 nM (6 of 6 replicates; controls 3 of 18)
- MISGVMKSLSAHMNSVA | DMTNREN | QQYDRLPLS [En_Gen]: 8.5 nM (6 of 6 replicates; controls 1 of 18)
- KLSASELYESAAKNSVA | NAMQRMS | QQYHRLPLS [GP_Gibbs]: 630 pM (6 of 6 replicates; controls 2 of 18)
- QISMFELQGTGWAQNIA | QASHRTE | QQFSRLPLV [En_Gibbs]: 8.8 nM (6 of 6 replicates; controls 0 of 18)
- HMSALTLQGMRARNSVA | QMTTREN | QQYDRLPLS [En_Gen]: 11 nM (6 of 6 replicates; controls 0 of 18)
- KLANEMYQGSLVQANVA | EGKELWE | QQYGHLPLA [En_Gibbs]: 95 nM (5 of 6 replicates; controls 1 of 18)
- KLSISGVHESIDKKSIA | ERSTREN | QQYHRLPLS [En_HC]: 2.9 nM (6 of 6 replicates; controls 2 of 18)
- KLYQVTGYEMLNKDSVA | QTSTRVN | QDYHRLPLS [En_HC]: 6.1 nM (6 of 6 replicates; controls 0 of 18)
- TIGGTLMYGMRNRSNVA | EVSQRLN | QQYDRLPLV [En_Gen]: 21 nM (6 of 6 replicates; controls 0 of 18)
- MISQLYNMGSFAINSVA | QASVRNE | QQYDRLPLM [En_Gen]: 100 nM (4 of 6 replicates; controls 0 of 18)
- KIGATLNTLYEKTNNVA | DLVEREN | QQYHRLPLS [En_Gen]: 3.3 nM (6 of 6 replicates; controls 0 of 18)
- KLSNSVWQESRMKNQVA | EASTREM | QQYHRLPLS [GP_Gibbs]: 6.5 nM (6 of 6 replicates; controls 1 of 18)
- MFSQLMAYGSRYKNSVA | QASTRED | QQYHELPLS [En_HC]: 5.6 µM (1 of 6 replicates; controls 1 of 18)
- HISQSVGVTSRNKNSVA | ENSTRED | QQYDRLPLS [En_HC]: 73 nM (4 of 6 replicates; controls 0 of 18)
- KLTMMFQHTSKNKNNIA | ERSTREE | QQYHHLPLS [En_HC]: 1.3 nM (6 of 6 replicates; controls 1 of 18)

The first 7 entries again:

- HLADTVMQGSYYRNSVA | QESTRAD | QQYHHLPLS [En_HC]: 2.3 nM (6 of 6 replicates; controls 1 of 18)
- HLGLATMLEETVRNSVA | NNSTRES | QQYDRLPLS [En_Gen]: 81 nM (5 of 6 replicates; controls 0 of 18)
- KSSESWLYDSRNANSVA | QASTRES | QQYHYLFIS [Ctrl]: 2.7 nM (6 of 6 replicates; controls 0 of 18)
- MLSEVLHMLGAKKNSIA | DLVLRAN | QQYHRLPLA [En_Gen]: 3.8 nM (2 of 6 replicates; controls 0 of 18)
- TISQSFHMENQFKNSVA | QASTRES | QCYDRLPLS [En_HC]: 300 nM (2 of 6 replicates; controls 1 of 18)
- TISMVMNHMTREKNNVA | NMDMREQ | QQYDRLPLS [En_Gen]: 1.9 nM (6 of 6 replicates; controls 0 of 18)
- KITATMRFEQKASNNIA | EVTNRSK | QQYYRLPLS [En_Gen]: 9.8 nM (6 of 6 replicates; controls 2 of 18)

Background: pairings of all light chain designs with three empty control strains gave a value in 4% of cases (median 430 nM, 5th percentile 38 nM). Values in that range, when seen in few replicates, are hard to tell from nonspecific mating. The control count says in how many pairings with the empty strains this scFv gave a signal. In the paper, a design with two or fewer of six values counts as a poor binder. Of ten entries with the parent sequence, four were seen in most replicates (averages 2.2 nM to 240 nM), three in one and three in none, so single entries are noisy.